Reference: US20040067483A1, “Compositions, methods and kits for identying protein-protein interaction disrupting agents” (priority 2003, published 2004)

Legend:
[1] = target: T1, interaction between EGFR and p85 (Homo sapiens, UniProt P00533); type: cell-based; settings: 293A cells, transient transfection; AG1478 2.5 μM; photomicrographs 48 hrs after treatment; FIG. 4e-4h
Description: FIGS. 4e to 4h show visual evaluation of GFP expression. […] Photomicrographs of the cells showing expression of GFP were taken 48 hrs after the treatment of cells. The concentration of AG1478 used was 2.5 μM and that of FK506 was 100 nM.

[2] = target: interaction between the EGFR and p85 (Homo sapiens, UniProt P00533); settings: 293A cells; 1 μg/ml Dox, 48 hrs; FK506 100 nM, AG1478 2.5 μM; FIG. 3
[3] = target: kinase of the EGFR (Homo sapiens, UniProt P00533); settings: cited from earlier work
[4] = target: T1, interaction between EGFR and p85; experiment: Mammalian reverse two-hybrid system, secreted β-lactamase reporter (AD-p85-IRES-BD-EGFR); type: cell-based; settings: 12 hr Dox and AG1478 at indicated concentrations; nitrocefin, 30 min; absorbency at 488 nm; FIG. 5
Description: β-lactamase. […] The cells were induced with Dox at a final concentration of 1 μg/ml for 12-24 hrs for reporter protein expression. 50 μl or 100 μl of reaction solution containing 100 mM phosphate, pH 7.0, 10 μM nitrocefin, 0.5 μM oleic acid was added to each well. The reaction was carried out at 37° C. for 30-60 minutes. In some experiments, clavulanic acid, an inhibitor for β-lactamase was added at a concentration of 25 μM. β-lactamase activity was measured as an increase in absorbency at 488 nm.
In obtaining the results shown in FIG. 5, cells that were stably expressing the TetR-KRAB construct, the GFP-β-lactamase construct, and the AD-p85-IRES-BD-EGFR construct were grown in 100 or 50 μl of DMEM without Phenol Red and treated with Dox and the inhibitor AG1478 at the indicated concentrations for 12 hr. The substrate nitrocefin, in 100 or 50 μl of the reaction buffer, was added to each assay. The reaction was carried out for 30 min at 22° C. The activity of the secreted β-lactamase in the medium was directly measured by absorbency at 488 nm in a multi-well plate reader.

Compound: COc1cc2ncnc(Nc3cccc(Cl)c3)c2cc1OC [AG1478]
- Visual indication of disruption of interaction by GFP reporter [1]: non-expression of the GFP reporter gene
- Dox-induced GFP expression (GFP reporter gene) [2]: nearly completely antagonized
- Inhibition of the kinase of the EGFR [3]: potent inhibitor
- β-lactamase activity in the medium (disrupting the interaction between EGFR and p85) [4]: dose-dependent effect
